Experimental data from patent US20050256301A1 (The University of Queensland, priority 1998, published 2005).

Protein sequences, listed by entry. Tags and fused reporters are not part of them.
UniProt P23975, whole entry: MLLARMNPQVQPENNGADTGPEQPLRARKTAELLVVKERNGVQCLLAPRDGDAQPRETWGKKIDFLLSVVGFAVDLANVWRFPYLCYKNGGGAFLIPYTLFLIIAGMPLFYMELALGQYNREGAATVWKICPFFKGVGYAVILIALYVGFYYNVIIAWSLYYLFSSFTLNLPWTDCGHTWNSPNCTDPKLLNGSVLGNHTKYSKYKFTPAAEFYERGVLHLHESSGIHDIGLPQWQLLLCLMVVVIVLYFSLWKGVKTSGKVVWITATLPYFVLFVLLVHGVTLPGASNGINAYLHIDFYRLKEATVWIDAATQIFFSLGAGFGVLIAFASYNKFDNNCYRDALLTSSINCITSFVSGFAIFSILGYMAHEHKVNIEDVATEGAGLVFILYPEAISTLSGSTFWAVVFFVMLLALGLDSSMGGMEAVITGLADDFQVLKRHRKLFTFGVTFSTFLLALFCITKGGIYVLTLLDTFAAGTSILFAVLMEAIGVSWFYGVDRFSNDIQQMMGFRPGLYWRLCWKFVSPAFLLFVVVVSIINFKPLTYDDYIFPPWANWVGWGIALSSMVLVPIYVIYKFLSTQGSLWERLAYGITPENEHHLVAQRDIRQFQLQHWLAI

Key:
[1] = target: T1, human NET expressed in Cos-7 cells (Homo sapiens, UniProt P23975); assay: biochemical; assay type: binding
T1 construct: expressed in transfected cells; host or cells: COS-7 cells, transient transfection

[2] = tested on: trypsin; conditions: pH 8

Compound | EC50 ([1]; EC50 (Table 4)) [nM] | EC50 ([1]; EC50 (text of Example 10)) [nM] | resistance to cleavage by trypsin [2] | EC50 ([1]; EC50 (Table 5)) [nM]
CC(C)C[C@@H]1NC(=O)[C@H](CCCCN)NC(=O)[C@H](Cc2ccc(O)cc2)NC(=O)CNC(=O)[C@@H]2CSSC[C@H](NC1=O)C(=O)N[C@@H](Cc1c[nH]cn1)C(=O)N1C[C@H](O)C[C@H]1C(=O)N[C@H]1CSSC[C@H](NC(=O)[C@H](C(C)C)NC(=O)CNC(=O)[C@H](CC(N)=O)NC(=O)CNC(=O)[C@H](C)NC1=O)C(=O)N2 [cMrIA-AG, Asn Gly Val Cys Cys Gly Tyr Lys Leu Cys His Hyp Cys Ala Gly] | 6460 ± 1170 | 990 | significantly resistant to cleavage by trypsin | 
CC(C)C[C@@H]1NC(=O)[C@H](CCCCN)NC(=O)[C@H](Cc2ccc(O)cc2)NC(=O)CNC(=O)[C@@H]2C[Se][Se]C[C@H](NC1=O)C(=O)N[C@@H](Cc1c[nH]cn1)C(=O)N1C[C@H](O)C[C@H]1C(=O)N[C@H]1CSSC[C@H](NC(=O)[C@H](C(C)C)NC(=O)CNC(=O)[C@H](CC(N)=O)NC(=O)CNC(=O)[C@H](C)NC1=O)C(=O)N2 [[Sec5,10]cMrIA-AG, Asn Gly Val Cys Sec Gly Tyr Lys Leu Sec His Hyp Cys Ala Gly] |  |  |  | 2140 ± 880
